Measured values as given in ChEMBL document CHEMBL3091342, “Preparation, in vitro evaluation and molecular modelling of pyridinium-quinolinium/isoquinolinium non-symmetrical bisquaternary cholinesterase inhibitors” (Bioorg Med Chem Lett, 2013).

The chains behind the UniProt entries cited, without tags or fusion partners. Where a name states a change or a piece, a line headed by the entry shows the natural chain unless it says otherwise.
UniProt P06276, whole entry, looked up: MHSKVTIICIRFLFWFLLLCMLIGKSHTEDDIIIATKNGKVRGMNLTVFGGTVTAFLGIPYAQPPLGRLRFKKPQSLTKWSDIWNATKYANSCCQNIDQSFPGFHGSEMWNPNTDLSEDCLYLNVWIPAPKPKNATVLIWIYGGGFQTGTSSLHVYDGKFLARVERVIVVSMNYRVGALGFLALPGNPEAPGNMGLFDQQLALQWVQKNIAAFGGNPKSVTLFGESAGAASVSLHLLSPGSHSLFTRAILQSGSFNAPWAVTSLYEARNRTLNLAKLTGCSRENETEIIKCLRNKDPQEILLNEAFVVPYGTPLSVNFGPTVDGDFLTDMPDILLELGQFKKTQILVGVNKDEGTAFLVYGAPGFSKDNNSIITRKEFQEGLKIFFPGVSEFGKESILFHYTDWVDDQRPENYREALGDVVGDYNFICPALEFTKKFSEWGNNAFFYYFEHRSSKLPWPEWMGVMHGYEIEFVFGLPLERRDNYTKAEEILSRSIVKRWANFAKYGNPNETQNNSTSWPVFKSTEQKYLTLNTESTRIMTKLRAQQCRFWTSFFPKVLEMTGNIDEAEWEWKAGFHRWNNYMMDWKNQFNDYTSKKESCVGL
UniProt P22303: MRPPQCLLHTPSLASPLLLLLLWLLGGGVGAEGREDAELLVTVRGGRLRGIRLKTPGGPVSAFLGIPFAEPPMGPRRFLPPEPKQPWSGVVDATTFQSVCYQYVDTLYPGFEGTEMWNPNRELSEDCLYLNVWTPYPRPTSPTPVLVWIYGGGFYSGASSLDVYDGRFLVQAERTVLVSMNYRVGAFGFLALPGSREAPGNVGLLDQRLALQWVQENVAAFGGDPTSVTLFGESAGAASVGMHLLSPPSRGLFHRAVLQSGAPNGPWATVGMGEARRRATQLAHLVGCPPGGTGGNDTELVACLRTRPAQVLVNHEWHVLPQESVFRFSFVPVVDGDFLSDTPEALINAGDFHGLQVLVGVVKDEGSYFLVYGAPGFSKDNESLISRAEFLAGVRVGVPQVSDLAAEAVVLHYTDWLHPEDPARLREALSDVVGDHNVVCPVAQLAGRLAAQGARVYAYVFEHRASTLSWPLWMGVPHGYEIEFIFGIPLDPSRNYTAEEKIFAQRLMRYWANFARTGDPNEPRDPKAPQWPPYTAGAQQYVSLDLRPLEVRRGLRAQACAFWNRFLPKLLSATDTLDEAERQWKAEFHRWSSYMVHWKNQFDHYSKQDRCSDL

Molecular target: Cholinesterases; ACHE & BCHE (Homo sapiens) (UniProt P06276+P22303)
Test: Selectivity index, ratio of IC50 for human plasmatic BChE to IC50 for human recombinant AChE

Compound	Ratio IC50
C=CC[N+](C)(C)c1ccc(CCC(=O)CCc2ccc([N+](C)(C)CC=C)cc2)cc1	11800
c1cc[n+](CCCCCCCCCC[n+]2cccc3ccccc32)cc1	630
